Experimental data as given in patent publication US20100159455A1, “RECEPTOR FAMILY PROFILING” (ENSEMBLE DISCOVERY, priority 2006, published 2010).

Legend:
EGFR-ErbB2 heterodimers [1] = target: T1, EGFR-ErbB2 heterodimers (Homo sapiens, UniProt P00533); conditions: treatment with AG1478 alone; Arteaga et al. 1997; cited from earlier work
T1 construct: A DPC assay was performed on suspensions of A431 cells; endogenous in cells; host or cells: A431

EGFR-ErbB2 heterodimers [2] = target: T1, EGFR-ErbB2 heterodimers; test: Indolinium condensation DPC assay for EGFR-ErbB2 heterodimers on A431 cells, flow cytometry; type: cell-based; conditions: pretreated with AG1478 (1 μM, 15 min at 37° C.) prior to EGF treatment, vs untreated cells
EGFR = EGFR (Homo sapiens, UniProt P00533); conditions: pre-treatment with the tyrosine kinase inhibitor; Gannett et al. 1997; cited from earlier work
[3] = system: ErbB2 overexpressing metastatic breast cancer; conditions: Vogel et al. 2002; cited from earlier work

change in DPC signal for EGFR-ErbB2 heterodimer (EGFR-ErbB2 heterodimers [2]) | Compound | formation of EGFR-ErbB2 heterodimers (EGFR-ErbB2 heterodimers [1]) | autophosphorylation of the cytoplasmic domain of EGFR (EGFR) | patients responding effectively to therapy [3]
approximately three fold | COc1cc2ncnc(Nc3cccc(Cl)c3)c2cc1OC [AG1478] | induce formation of EGFR-ErbB2 heterodimers | prevents the autophosphorylation | –
– | Trastuzamab: anti-ErbB2, Herceptin | – | – | 35%
